Ki data for one compound are collected here from patent publication US5455230A, “Delta opioid receptor antagonists and their use as analgesic agents” (Aktiebolaget Astra, priority 1993, dated 1995).

By UniProt entry, the sequences of proteins in these tests, tags left out.
UniProt P33535, whole entry: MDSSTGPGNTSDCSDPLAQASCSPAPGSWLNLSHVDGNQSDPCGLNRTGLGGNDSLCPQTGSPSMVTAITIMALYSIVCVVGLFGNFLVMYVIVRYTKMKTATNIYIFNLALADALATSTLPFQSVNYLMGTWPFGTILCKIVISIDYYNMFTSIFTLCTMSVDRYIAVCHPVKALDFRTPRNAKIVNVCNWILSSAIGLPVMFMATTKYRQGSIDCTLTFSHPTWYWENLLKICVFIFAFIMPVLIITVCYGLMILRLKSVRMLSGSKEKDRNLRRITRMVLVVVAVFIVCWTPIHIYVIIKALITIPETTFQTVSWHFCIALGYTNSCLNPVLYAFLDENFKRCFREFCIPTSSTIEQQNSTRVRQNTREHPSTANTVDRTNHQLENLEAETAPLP

Each structure is given as a SMILES string.

For orientation: Ki means the equilibrium dissociation constant of an inhibitor or competing ligand from its target.

The target of this test is T1, μ opioid receptor (Rattus norvegicus, UniProt P33535).
T1 construct: from tissue; host or cells: rat brain (without cerebellum) membranes, Sprague-Dawley
As to the kind of experiment: μ opioid receptor binding assay, displacement of [3H]DAMGO from rat brain membranes. An excerpt:
In the case of κ-ligands guinea pig brain homogenates were used, since the relative proportion of κ-binding sites is higher in guinea pig brain than in rat brain. The experimental procedure being used in our laboratory represents a modified version of the binding assay described by Pastemak et al. (Mol. Pharmacol. 11,340-351, (1975)). Male Sprague-Dawley rats (300-350 g) from the Canadian Breeding Laboratories were decapitated and after removal of the cerebellum the brains were homogenized in 30 volumes of ice-cold standard buffer (50 mM Tris-HCl, pH 7.7). After centrifugation at 30,000×g for 30 min at 4° C. the membranes were reconstituted in the original volume of standard buffer and incubated for 30 min at 37° C. (to release bound endogenous ligands). […] The incubation was terminated by filtration through Whatman GF/B filters under vacuum at 4° C. Following two washings with 5 ml portions of ice-cold standard buffer the filters were transferred to scintillation vials and treated with 1 ml Protosol (New England Nuclear) for 30 min prior to the addition of 0.5 ml acetic acid and 10 ml Aquasol (New England Nuclear). After shaking for 30 min the vials were counted at an efficiency of 40-45%. All experiments were performed in duplicates and repeated at least three times. […] Values of half-maximal inhibition (IC50) of specific binding were obtained graphically from semilogarithmic plots.
In general terms: Loss of bound radioactivity is the signal in a displacement assay; it reports binding, not function.

As for `Oc1ccc2c3c1O[C@H]1c4[nH]c5ccccc5c4C[C@@]4(O)[C@@H](C2)N(CC2CC2)CC[C@]314` [Naltrindole, naltrindole, reference compound], the Ki is 12.2 ± 1.9 nM.
